Measured values reported in patent publication US10730889B2, “Amido spirocyclic amide and sulfonamide derivatives” (Forma TM, LLC, priority 2012, dated 2020).

Chains of the proteins cited; added tags and fusions are not shown. Lines headed by an entry give the natural chain unless they say otherwise; changes in a name come on top.
UniProt P43490: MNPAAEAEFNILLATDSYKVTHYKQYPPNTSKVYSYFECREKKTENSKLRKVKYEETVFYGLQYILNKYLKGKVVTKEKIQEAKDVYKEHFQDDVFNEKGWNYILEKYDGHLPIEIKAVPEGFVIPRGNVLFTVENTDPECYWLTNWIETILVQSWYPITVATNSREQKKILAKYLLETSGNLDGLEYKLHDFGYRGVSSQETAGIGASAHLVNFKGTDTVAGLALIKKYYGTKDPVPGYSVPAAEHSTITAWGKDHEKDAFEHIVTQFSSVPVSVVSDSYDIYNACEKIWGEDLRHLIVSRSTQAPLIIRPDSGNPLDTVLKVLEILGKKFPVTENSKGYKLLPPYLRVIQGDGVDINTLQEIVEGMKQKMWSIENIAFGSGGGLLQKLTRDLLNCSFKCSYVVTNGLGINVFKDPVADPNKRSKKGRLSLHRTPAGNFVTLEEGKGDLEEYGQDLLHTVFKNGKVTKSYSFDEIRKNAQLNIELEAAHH

target: NAMPT (Homo sapiens (Human), UniProt P43490); assay: Biochemical inhibition assay (NAMPT enzymatic reaction, NMN quantified by mass spectrometry)

IC50 [µM] | Compound
0.127 | O=C(NCC1CC12CCN(C(=O)c1ccc3nonc3c1)CC2)c1cc2ccncc2o1 (centres unmarked) [Example 266, N-[[6-(2,1,3-benzoxadiazole-5-carbonyl)-6-azaspiro[2.5]octan-2-yl]methyl]furo[2,3-c]pyridine-2-carboxamide]
0.321 | O=C(NCC1CC12CCN(C(=O)c1ccnc3ncccc13)CC2)c1cc2ccncc2o1 (centres unmarked) [Example 267, N-[[6-(1,8-naphthyridine-4-carbonyl)-6-azaspiro[2.5]octan-2-yl]methyl]furo[2,3-c]pyridine-2-carboxamide]
0.0277 | O=C(NCC1CC12CCN(C(=O)c1cnc3ccccc3n1)CC2)c1cc2ccncc2o1 (centres unmarked) [Example 269]
0.0964 | O=C(NCC1CC12CCN(C(=O)c1ccc3cccnc3n1)CC2)c1cc2ccncc2o1 (centres unmarked) [Example 271, N-[[6-(1,8-naphthyridine-2-carbonyl)-6-azaspiro[2.5]octan-2-yl]methyl]furo[2,3-c]pyridine-2-carboxamide]
0.335 | O=C(NCC1CC12CCN(C(=O)c1ccno1)CC2)c1cc2ccncc2o1 (centres unmarked) [Example 272, N-[[6-(isoxazole-5-carbonyl)-6-azaspiro[2.5]octan-2-yl]methyl]furo[2,3-c]pyridine-2-carboxamide]
0.0178 | CC(C)CC(=O)N1CCC2(CC1)CC2CNC(=O)c1cc2ccncc2o1 (centres unmarked) [Example 273, N-[[6-(3-methylbutanoyl)-6-azaspiro[2.5]octan-2-yl]methyl]furo[2,3-c]pyridine-2-carboxamide]
0.384 | CC(C)(C)OC(=O)N1CCC2(CC1)CC2CNC(=O)N1Cc2cn[nH]c2C1 (centres unmarked) [Example 274, tert-Butyl 2-[(4,6-dihydro-1H-pyrrolo[3,4-c]pyrazole-5-carbonylamino)methyl]-6-azaspiro[2.5]octane-6-carboxylate]
0.121 | CN1CCC(C)(CC(=O)N2CCC3(CC2)CC3CNC(=O)c2cc3ccncc3o2)CC1 (centres unmarked) [Example 275, N-([6-[2-(1,4-dimethylpiperidin-4-yl)acetyl]-6-azaspiro[2.5]octan-1-yl]methyl)furo[2,3-c]pyridine-2-carboxamide]
0.445 | O=C(NCC1CC12CCN(C(=O)Cc1cccnc1)CC2)c1cc2cnccc2[nH]1 (centres unmarked) [Example 277, N-[[6-[2-(3-pyridyl)acctyl]-6-azaspiro[2.5]octan-2-yl]methyl]-1H-pyrrolo[3,2-c]pyridine-2-carboxamide]
0.479 | O=C(NCC1CC12CCN(C(=O)Cc1ccncc1)CC2)c1cc2cnccc2[nH]1 (centres unmarked) [Example 278, N-[[6-[2-(4-pyridyl)acetyl]-6-azaspiro[2.5]octan-2-yl]methyl]-1H-pyrrolo[3,2-c]pyridine-2-carboxamide]
0.056 | Cc1cc(C)c(C(=O)N2CCC3(CC2)CC3CNC(=O)c2cc3ccncc3o2)cn1 (centres unmarked) [Example 281, N-[[6-(4,6-dimethylpyridine-3-carbonyl)-6-azaspiro[2.5]octan-2-yl)methyl]furo[2,3-c]pyridine-2-carboxamide]
0.722 | Cc1ccncc1C(=O)N1CCC2(CC1)CC2CNC(=O)c1cc2cnccc2[nH]1 (centres unmarked) [Example 291, N-[[6-(4-methylpyridine-3-carbonyl)-6-azaspiro[2.5]octan-2-yl]methyl]-1H-pyrrolo[3,2-c]pyridine-2-carboxamide]
0.0871 | Cn1nc(C(C)(C)C)cc1C(=O)N1CCC2(CC1)CC2CNC(=O)c1cc2ccncc2o1 (centres unmarked) [Example 296, N-[[6-(5-tert-butyl-2-methyl-pyrazole-3-carbonyl)-6-azaspiro[2.5]octan-2-yl]methyl]furo[2,3-c]pyridine-2-carboxamide]
0.0925 | CCn1nccc1C(=O)N1CCC2(CC1)CC2CNC(=O)c1cc2ccncc2o1 (centres unmarked) [Example 297, N-[[6-(2-ethylpyrazole-3-carbonyl)-6-azaspiro[2.5]octan-2-yl]methyl]furo[2,3-c]pyridine-2-carboxamide]
0.213 | Cc1cnn(C(C)(C)C)c1C(=O)N1CCC2(CC1)CC2CNC(=O)c1cc2ccncc2o1 (centres unmarked) [Example 298, N-[[6-(2-tert-butyl-4-methyl-pyrazole-3-carbonyl)-6-azaspiro[2.5]octan-2-yl]methyl]furo[2,3-c]pyridine-2-carboxamide]
0.165 | Cc1cnn(C)c1C(=O)N1CCC2(CC1)CC2CNC(=O)c1cc2ccncc2o1 (centres unmarked) [Example 299, N-[[6-(2,4-dimethylpyrazole-3-carbonyl)-6-azaspiro[2.5]octan-2-yl]methyl]furo[2,3-c]pyridine-2-carboxamide]
0.0648 | O=C(NCC1CC12CCN(C(=O)c1n[nH]c3ccccc13)CC2)c1cc2ccncc2o1 (centres unmarked) [Example 302, N-[[6-(1H-indazole-3-carbonyl)-6-azaspiro[2.5]octan-2-yl]methyl]furo(2,3-c]pyridine-2-carboxamide]
0.478 | CC(C)N1CCC(n2cc(C(=O)N3CCC4(CC3)CC4CNC(=O)c3cc4ccncc4o3)cn2)C1 (centres unmarked) [Example 303, N-[[6-(1-(1-isopropylpyrrolidin-3-yl)pyrazole-4-carbonyl]-6-azaspiro[2.5]octan-2-yl]methyl]furo[2,3-c]pyridine-2-carboxamide]

IC50 [µM] | Compound
0.0979 | Cc1nn(C)cc1-c1cc(C(=O)N2CCC3(CC2)CC3CNC(=O)c2cc3ccncc3o2)no1 (centres unmarked) [Example 305, N-[[6-[5-(1,3-dimethylpyrazol-4-yl)isoxazole-3-carbonyl]-6-azaspiro[2.5]octan-2-yl]methyl]furo[2,3-c]pyridine-2-carboxamide]
0.0678 | CC(C)(C)OC(=O)N1Cc2[nH]nc(C(=O)N3CCC4(CC3)CC4CNC(=O)c3cc4ccncc4o3)c2C1 (centres unmarked) [Example 306, tert-butyl 3-[2-[(furo[2,3-c]pyridine-2-carbonylamino)methyl]-6-azaspiro[2.5]octane-6-carbonyl]-4,6-dihydro-1H-pyrrolo[3,4-c]pyrazole-5-carboxylate]
0.0858 | CN1CCC(n2cc(C(=O)N3CCC4(CC3)CC4CNC(=O)c3cc4ccncc4o3)cn2)C1 (centres unmarked) [Example 307, N-[[6-[1-(1-methylpyrrolidin-3-yl)pyrazole-4-carbonyl]-6-azaspiro[2.5]octan-2-yl]methyl]furo[2,3-c]pyridine-2-carboxamide]
0.116 | Cc1cc(C(=O)N2CCC3(CC2)CC3CNC(=O)c2cc3ccncc3o2)n(C(C)(C)C)n1 (centres unmarked) [Example 308, N-[[6-(2-tert-butyl-5-methyl-pyrazole-3-carbonyl)-6-azaspiro[2.5]octan-2-yl]methyl]furo[2,3-c]pyridine-2-carboxamide]
0.0822 | Cc1nc2ccccn2c1C(=O)N1CCC2(CC1)CC2CNC(=O)c1cc2ccncc2o1 (centres unmarked) [Example 309, N-[[6-(2-methylimidazo[1,2-a]pyridine-3-carbonyl)-6-azaspiro[2.5]octan-2-yl]methyl]furo[2,3-c]pyridine-2-carboxamide]
0.119 | Cc1ccc2nc(C(=O)N3CCC4(CC3)CC4CNC(=O)c3cc4ccncc4o3)[nH]c2c1 (centres unmarked) [Example 310, N-[[6-(6-methyl-1H-benzimidazole-2-carbonyl)-6-azaspiro[2.5]octan-2-yl]methyl]furo[2,3-c]pyridine-2-carboxamide]
0.0158 | Cc1cccc2nc(C(=O)N3CCC4(CC3)CC4CNC(=O)c3cc4ccncc4o3)cn12 (centres unmarked) [Example 311, N-[[6-(5-methylimidazo[1,2-a]pyridine-2-carbonyl)-6-azaspiro[2.5]octan-2-yl]methyl]furo[2,3-c]pyridine-2-carboxamide]
0.0363 | O=C(NCC1CC12CCN(C(=O)c1cc3ncccn3n1)CC2)c1cc2ccncc2o1 (centres unmarked) [Example 313, N-[[6-(pyrazolo[1,5-a]pyrimidine-2-carbonyl)-6-azaspiro[2.5]octan-2-yl]methyl]furo[2,3-c]pyridine-2-carboxamide]
0.0459 | CCn1nc(C)c(C(=O)N2CCC3(CC2)CC3CNC(=O)c2cc3ccncc3o2)c1C (centres unmarked) [Example 314, N-[[6-(1-ethyl-3,5-dimethyl-pyrazole-4-carbonyl)-6-azaspiro[2.5]octan-2-yl]methyl]furo[2,3-c]pyridine-2-carboxamide]
0.0572 | Cc1ccc2nc(C(=O)N3CCC4(CC3)CC4CNC(=O)c3cc4ccncc4o3)cn2c1 (centres unmarked) [Example 315, N-[[6-(6-methylimidazo[1,2-a]pyridine-2-carbonyl)-6-azaspiro[2.5]octan-2-yl]methyl]furo[2,3-c]pyridine-2-carboxamide]
0.744 | O=C(NCC1CC12CCN(C(=O)c1cnn3ccccc13)CC2)c1cc2ccncc2o1 (centres unmarked) [Example 316, N-[[6-(pyrazolo[1,5-a]pyridine-3-carbonyl)-6-azaspiro[2.5]octan-2-yl]methyl]furo[2,3-c]pyridine-2-carboxamide]
0.0443 | O=C(NCC1CC12CCN(C(=O)c1cn3ccccc3n1)CC2)c1cc2ccncc2o1 (centres unmarked) [Example 317, N-[[6-(imidazo[1,2-a]pyridine-2-carbonyl)-6-azaspiro[2.5]octan-2-yl]methyl]furo[2,3-c]pyridine-2-carboxamide]
0.436 | CC(C)c1oncc1C(=O)N1CCC2(CC1)CC2CNC(=O)c1cc2ccncc2o1 (centres unmarked) [Example 318, N-[[6-(5-isopropylisoxazole-4-carbonyl)-6-azaspiro[2.5]octan-2-yl]methyl]furo[2,3-c]pyridine-2-carboxamide]
0.0776 | CC(C)Cc1cc(C(=O)N2CCC3(CC2)CC3CNC(=O)c2cc3ccncc3o2)[nH]n1 (centres unmarked) [Example 319, N-[[6-(3-isobutyl-1H-pyrazole-5-carbonyl)-6-azaspiro[2.5]octan-2-yl]methyl]furo[2,3-c]pyridine-2-carboxamide]
0.13 | O=C(NCC1CC12CCN(C(=O)c1cn3cccnc3n1)CC2)c1cc2ccncc2o1 (centres unmarked) [Example 320, N-[[6-(imidazo[1,2-a]pyrimidine-2-carbonyl)-6-azaspiro[2.5]octan-2-yl]methyl]furo[2,3-c]pyridine-2-carboxamide]
0.523 | O=C(NCC1CC12CCN(C(=O)c1cnn3cccnc13)CC2)c1cc2ccncc2o1 (centres unmarked) [Example 321, N-[[6-(pyrazolo[1,5-a]pyrimidine-3-carbonyl)-6-azaspiro[2.5]oclan-2-yl]methyl]furo[2,3-c]pyridine-2-carboxamide]
0.0282 | CC(C)(C)c1cc(C(=O)N2CCC3(CC2)CC3CNC(=O)c2cc3ccncc3o2)[nH]n1 (centres unmarked) [Example 322, N-[[6-(3-tert-butyl-1H-pyrazole-5-carbonyl)-6-azaspiro[2.5]octan-2-yl]methyl]furo[2,3-c]pyridine-2-carboxamide]
